Earlier results, collected in patent publication US11548845B2, “Methods of isolating phenols from phenol-containing media” (WISCONSIN ALUMNI RESEARCH FOUNDATION, priority 2019, dated 2023).

Key:
[1] = surfactants of Table 2; cited from earlier work
[2] = values from literature; cited from earlier work

Substance | HLB value [1] | Log P [2]
sucrose stearate | 20 | 
proanthocyanidin |  | 10
